Reference: patent US9163044B2, “Carbon monoxide releasing molecules and uses thereof” (Alfama, Inc., priority 2011, dated 2015)

Tested on: APAP-induced acute liver failure (ALF) model
Assay: APAP-induced acute liver failure (ALF) model, sublethal (300 mg/kg APAP i.p.)
Type: in vivo, C57Bl/6 male mice
Method: Compound 3b was studied in a sublethal model for acetaminophen (APAP)-induced Liver Injury.
ALF was induced in C57Bl/6 male mice with a single dose of acetaminophen (300 mg/kg) by i.p. injection. […] Serum alanine aminotransferase (ALT) was measured 22 h after APAP injection (n=5 mice for each group). […] ALF was induced in C57Bl/6 male mice with a single dose of acetaminophen (300 mg/kg) by i.p. injection. […] Twenty-two hours after APAP injection serum ALT was measured (indicated in FIG. 11A), centrilobular sections of mouse livers were cut and stained with hematoxylin and eosin, and the percentage of liver necrosis was determined. The data indicates a dose-dependent reduction of ALT levels of 9% to 83% relative to APAP control, and a dose-dependent reduction of necrosis of 0% to 56% relative to APAP control.
(§1) ALF was induced in C57Bl/6 male mice with a single dose of acetaminophen (300 mg/kg) by i.p. injection. […] Alanine aminotransferase (ALT) was measured 22 h after APAP injection (n=4 or n=5 mice for each group).
ALF was induced in C57Bl/6 male mice with a single dose of acetaminophen (300 mg/kg) by i.p. injection. […] Twenty-two hours after APAP injection, serum ALT was measured (indicated in FIGS. 12A-12B), centrilobular sections of mouse livers were cut and stained with hematoxylin and eosin, and the percentage of liver necrosis was determined.
ALF was induced in C57Bl/6 male mice with a single dose of acetaminophen (300 mg/kg) by i.p. injection.
FIG. 14 depicts the effect of late treatment with Compound 3b on serum ALT in ALF model. ALF was induced in C57Bl/6 male mice with a single dose of acetaminophen (300 mg/kg) by i.p. injection. At sixteen hours after APAP injection, the animals were treated with different doses of Compound 3b (0.3, 3, 30 or 60 mg/kg). Alanine aminotransferase (ALT) was measured 22 h after APAP injection (n=4 or n=5 mice for each group).
as §1

[1] = NAC 2 × 300 mg/kg at 1 h and 3 h post APAP

CC(=O)N[C@@H](CS)C(=O)O [NAC, N-acetylcysteine, reference compound]
liver histology: necrosis (in words) (Compound 3b 2×100 or 2×300 mg/kg, NAC 2×300 mg/kg, at one and three hours after APAP, 22 h): very little if any necrosis | % ALT increase relative to increase with APAP alone Experiment 1 [1]: 19.3 ± 8.7% | % ALT increase relative to increase with APAP alone Experiment 2 [1]: 54.2 ± 17.5%
